Test results from patent publication US20240342138A1, “MICROTUBULE TARGETING AGENTS” (BPGbio, Inc., priority 2023, published 2024).

Tested on: colchicine binding site of tubulin
Test: EBI labeling assay in MIA PaCa2 cells (Western blot)
Format: cell-based
Conditions: 2 hours compound, then 2 hours 100 μM EBI, FIG. 2, FIG. 3

In the case of `COc1cc2c(c(OC)c1OC)-c1ccc(OC)c(=O)cc1[C@@H](NC(C)=O)CC2` [colchicine], the “Formation of EBI:β-tubulin adducts” value is reported as “inhibited formation of the EBI:β-tubulin adducts”.
